Test results reported in patent publication US9586956B2, “Isoquinoline and naphthyridine derivatives” (Genentech, Inc., priority 2012, dated 2017).

The chains behind the UniProt entries cited, without tags or fusion partners. Residues count along the entry.
UniProt O95819, 25-289 limits assumed: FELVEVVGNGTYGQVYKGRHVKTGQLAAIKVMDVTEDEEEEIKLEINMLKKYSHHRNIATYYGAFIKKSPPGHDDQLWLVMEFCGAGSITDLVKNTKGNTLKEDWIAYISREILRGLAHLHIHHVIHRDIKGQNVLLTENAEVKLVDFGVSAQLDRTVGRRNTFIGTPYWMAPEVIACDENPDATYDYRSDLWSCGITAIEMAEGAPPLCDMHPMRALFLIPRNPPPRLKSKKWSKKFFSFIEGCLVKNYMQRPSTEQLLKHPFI

What was measured:
[1] = target: T1, purified human MAP4K4 kinase domain (Homo sapiens, UniProt O95819); experiment: MAP4K4 Inhibition Assay Protocol No. 1 (Caliper LabChip, moesin-derived peptide phosphorylation); conditions: read-out: MAP4K4 IC50 (μM) Assay 1, 1 nM enzyme, 10 uM ATP, 45 min
[2] = target: T1, purified human MAP4K4 kinase domain; experiment: MAP4K4 Inhibition Assay Protocol No. 2 (Z'-LYTE FRET); conditions: read-out: MAP4K4 IC50 (μM) Assay 2, 1 nM enzyme, 10 uM ATP, 60 min

## Nc1ncc(C(=O)N[C@H]2C[C@@H](O)C2)c2ccc(-c3cccc(F)c3)nc12 (relative stereo)
[1]
  IC50: 0.00256 µM
[2]
  IC50: 0.00305 µM
